Measurements as given in PMC12503259, “Establishment of an in vivo analytical method for detecting total anti-UFH activity and pharmacokinetic study in PS and R15 in rats” (PLOS One, 2025).

Columns and labels:
[1] = test system: activated partial thromboplastin time (APTT); settings: in vitro, cited from earlier work
metallocarboxypeptidases = settings: cited from earlier work
Description: Response: Thank you for your question. […] Because the article and thesis are in Chinese, we added the URL of article/ dissertation (in English) at the end of this response.

[2] = Stability in rat plasma after three freeze-thaw cycles; type: in vitro ADME; settings: three freeze (−80°C)-thaw (25°C) cycles; for Measured concentration after storage, Mean ± SD: n = 6
Experimental: (§1) Processing of Plasma Samples: 100 μL of the unknown plasma sample was added to 500 μL of 75% methanol (methanol: water = 75:25, v/v) and vortex-mixed for 5 seconds. The mixture was then centrifuged at 12,000 r/min for 10 minutes at 25°C. The supernatant (500 μL) was collected and dried under nitrogen at 60°C. Subsequently, UFH (0.14 U·mL^-1 for PS and 0.15 U·mL^-1 for R15; 120 μL) was added, and the mixture was vigorously shaken at room temperature for 10 minutes. The residual UFH content was measured using the Heparin Anti-FXa assay kit.
(§2) The detailed procedure is as follows: Accurately pipette 40 μL of the sample into a 96-well plate. Place the plate in a microplate shaker. Using a multichannel pipette, add 40 μL of reagent R1 and mix by shaking. Incubate at 37 °C for exactly 3 minutes (start timing upon addition of R1; at 50 seconds, begin shaking with the microplate shaker for 1 minute, then place the plate in the incubator). Remove the 96-well plate from the incubator and place it on the open microplate shaker. Using a multichannel pipette, add 40 μL of reagent R2 to each well and incubate at 37 °C for 6 minutes (after adding R2, at 3 minutes and 50 seconds, open the microplate shaker and shake for 4 minutes, then return the plate to the incubator). Remove the 96-well plate from the incubator and place it on the open microplate shaker. Quickly add 40 μL of reagent R3 using a multichannel pipette and shake until 9 minutes and 10 seconds. At 9 minutes and 30 seconds, add 80 μL of 20% acetic acid to each well to terminate the reaction. Measure the absorbance at 405 nm using a microplate reader (Multiskan FC, Thermo Fisher US).
Two concentration levels (low and high QC) were evaluated for validation of storage stability and freeze/thaw stability. Two concentration levels of PS and R15 (low and high QC) in blank rat plasma were prepared (n = 6), respectively. Samples in rats’ plasma were determined after storage at room temperature (25°C ± 1°C) for 30 min. […] Stock solution of PS and R15 were stored at 4°C for a week. All the samples mentioned above were processed by calibration curves with adequate QC samples diluted from newly prepared stock solution of PS and R15, followed by procedure of sample determination (see “Sample Preparation”), respectively.

[3] = Stability in rat plasma at room temperature for 30 min; type: in vitro ADME; settings: room temperature (25°C ± 1°C) for 30 min; for Measured concentration after storage, Mean ± SD: n = 6
Experimental: as §1, §2
(§3) Two concentration levels (low and high QC) were evaluated for validation of storage stability and freeze/thaw stability. Two concentration levels of PS and R15 (low and high QC) in blank rat plasma were prepared (n = 6), respectively. Samples in rats’ plasma were determined after storage at room temperature (25°C ± 1°C) for 30 min. Samples in rats’ plasma were under three freeze (−80°C)-thaw (25°C) cycles. Stock solution of PS and R15 were stored at 4°C for a week. All the samples mentioned above were processed by calibration curves with adequate QC samples diluted from newly prepared stock solution of PS and R15, followed by procedure of sample determination (see “Sample Preparation”), respectively.

[4] = Stability of stock solution at 4°C for a week; type: physicochemical; settings: stock solution for 1 week, mean of n=6
Experimental: Preparation of Stock Solutions: Appropriate amounts of PS and R15 powders were accurately weighed and dissolved in deionized water to obtain stock solutions at 10 mg·mL^-1, respectively. This solution was stored in a refrigerator at 4 °C and replaced regularly.
as §3

[5] = nominal 0.7 μg·mL^-1, anti-FXa read-out at 405 nm
[6] = nominal 1.5 μg·mL^-1, anti-FXa read-out at 405 nm

## N=C(N)NCCC[C@H](NC(=O)[C@H](CCCNC(=N)N)NC(=O)[C@H](CCCNC(=N)N)NC(=O)[C@H](CCCNC(=N)N)NC(=O)[C@H](CCCNC(=N)N)NC(=O)[C@H](CCCNC(=N)N)NC(=O)[C@H](CCCNC(=N)N)NC(=O)[C@H](CCCNC(=N)N)NC(=O)[C@H](CCCNC(=N)N)NC(=O)[C@H](CCCNC(=N)N)NC(=O)[C@H](CCCNC(=N)N)NC(=O)[C@H](CCCNC(=N)N)NC(=O)[C@H](CCCNC(=N)N)NC(=O)[C@H](CCCNC(=N)N)NC(=O)[C@@H](N)CCCNC(=N)N)C(=O)O [R15]
[1]; supratherapeutic amount
  time within which degraded: ≤ 2 h
[1]; supratherapeutic amounts
  effect of excess on APTT: APTT normalizes
metallocarboxypeptidases
  in vivo metabolism: metabolized by metallocarboxypeptidases into R12, R13, and R14
[2]; [5]
  Measured concentration after storage, Mean ± SD: 0.72 ± 0.02 µg/mL
[2]; nominal 0.7 μg·mL^-1, n = 6
  RE (%) versus nominal concentration: 3.06%
[2]; [6]
  Measured concentration after storage, Mean ± SD: 1.54 ± 0.09 µg/mL
[2]; nominal 1.5 μg·mL^-1, n = 6
  RE (%) versus nominal concentration: 2.60%
[3]; [5]
  Measured concentration after storage, Mean ± SD: 0.70 ± 0.02 µg/mL
[3]; nominal 0.7 μg·mL^-1, n = 6
  RE (%) versus nominal concentration: 0.24%
[3]; [6]
  Measured concentration after storage, Mean ± SD: 1.63 ± 0.09 µg/mL
[3]; nominal 1.5 μg·mL^-1, n = 6
  RE (%) versus nominal concentration: 8.57%
[4]; nominal 0.7 μg/mL
  Mean determined concentration, stability of stock solution: 0.74 µg/mL
[4]; nominal 1.5 μg/mL
  Mean determined concentration, stability of stock solution: 1.71 µg/mL
